Experiments:
EL4 cells = details: 24 h; for IL-2 secretion, agent alone (in words): IL-1β 1-30 ng ml^-1, TPA 1-20 ng ml^-1
EL-4 cells = assay: Ceramide levels in intact EL-4 cells; assay type: cell-based, murine; details: maximally effective concentrations (n=5), SMase 1×10^-3 U ml^-1
Procedure: Time course (FIG. 12A) and dose response (FIG. 12B). Cells were grown to growth arrest (1-1.5×10^6 cells ml^-1) in DME/Ham's F12 medium (1:1, v/v) containing 10% horse serum and for 48 hours [^3 H]choline (1 μCi ml^-1). On the day of an experiment, cells were resuspended back into the same medium at 10×10^6 cells ml^-1 and stimulated with 40 ng ml^-1 IL-1β for the indicated times (FIG. 12A) or for 30 minutes with increasing concentrations of IL-1β (FIG. 12B). Human IL-1β may be obtained using methods well knownto those skilled in the art. Reactions were terminated with CHCl3 :CH3 OH:HCl (100:100:1) containing 10 mM EDTA (82). Lipids in the organic phase extract were dried under N2 and subjected to mild alkaline hydrolysis (0.1M methanolic KOH for 1 hour at 37° C.) to remove glycerophospholipids. Spingomyelin was resolved by thin-layer chromatography (TLC) using CHCl3 :CH3 OH:CH3 COOH:H2 O (60:30:8:5) as solvent, identified by iodine vapor staining, and quantified by liquid scintillation spectrometry. […]
Cells were stimulated as in FIGS. 12A and 12B with IL-1β (40 ng ml^-1) and ceramide contained within the organic phase extract quantified enzymatically using the E. coli diacylglycerol kinase reaction (57). Lipids were resolved by TLC using CHCl3 :CH3 OH:CH3 COOH (65/15/5) as solvent, autoradiographed and quantified by liquid scintillation spectrometry. […]

IL-1β: Human IL-1β
IL-2 secretion, agent alone (in words) (EL4 cells): did not induce detectable IL-2 secretion

phospholipase A2
IL-2 secretion in combination with TPA (in words) (EL4 cells): did not stimulate IL-2 secretion alone or in combination with TPA | IL-2 secretion, agent alone (in words) (EL4 cells): did not stimulate IL-2 secretion

sphingomyelinase
IL-2 secretion, agent alone (in words) (EL4 cells): failed to stimulate IL-2 secretion | ceramide response (in words) (EL-4 cells): increase in ceramide content quantitatively similar to that induced by maximally effective concentrations of IL-1β

Source: patent publication US5451518A, “Purified human ceramide-activated protein kinase” (Sloan-Kettering Institute for Cancer Research, priority 1992, dated 1995)
